# Apparent affinities of Ab-95 variants for a coronavirus HR2 peptide

The target is the same throughout: PDVDLGDISGINAS, from the HR2 region of SARS-CoV-2 spike.

Parent scFv Ab-95: VH joined to VL by a 15-residue (Gly4Ser)3 linker. Changes lie in the light chain CDRs alone.
VH: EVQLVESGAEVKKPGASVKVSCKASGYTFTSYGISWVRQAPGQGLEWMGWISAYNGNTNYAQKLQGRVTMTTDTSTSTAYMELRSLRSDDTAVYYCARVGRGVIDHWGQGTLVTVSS
VL: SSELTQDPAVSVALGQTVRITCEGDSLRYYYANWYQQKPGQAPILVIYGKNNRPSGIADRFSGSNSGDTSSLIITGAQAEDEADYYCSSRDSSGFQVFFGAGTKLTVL

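Library AAYL52 holds single substitutions and randomly drawn double and triple substitutions in the CDRs. AlphaSeq pools MATa yeast showing the antibodies with MATalpha yeast showing the peptide. The frequency of each diploid, read from paired DNA barcodes, reflects how well the two displayed proteins bind. The ratio of observed to expected reads was calibrated, replicate by replicate, on BCL2-family standards whose Kd was known from biolayer interferometry. There are three technical replicates.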

The parent's light chain CDRs are EGDSLRYYYAN, GKNNRPS, SSRDSSGFQVF; each variant's own CDRs replace them letter for letter.
Numbers give log10(Kd / nM), so 0 is 1 nM and 3 is 1 µM. Smaller is tighter.
"ND" means that the variant was in the library but no mating with the target was seen in that replicate; the authors take this as a sign of poor binding, and no number exists.
Empty control strains, which show no peptide, gave a signal in 28% of pairings with library AAYL52; the median was 3.91 and 95% of these signals were weaker than 2.90. No background was subtracted. Also given: how often the same scFv was detected with the empty control strains, with their mean in brackets.

{"CDR-L1": "EGDSLRYKYAN", "CDR-L2": "GKNNRMS", "CDR-L3": "SSRDSSGFQSF", "replicates, log10 nM": "2.32 2.71 2.21", "control signals": "3/9 (4.32)"}
{"CDR-L1": "EGDSLRYYYAN", "CDR-L2": "GKNNWPM", "CDR-L3": "SVRDSSGFQVF", "replicates, log10 nM": "ND 3.58 4.30", "control signals": "5/9 (4.17)"}
{"CDR-L1": "AGDSLRYYYAN", "CDR-L2": "GKNNRPS", "CDR-L3": "SIRDSSGFFVF", "replicates, log10 nM": "2.85 2.64 2.03", "control signals": "6/9 (3.93)"}
{"CDR-L1": "EGHSLRYYYAN", "CDR-L2": "GKNNRPS", "CDR-L3": "SSRDGSGFQVI", "replicates, log10 nM": "2.72 2.56 2.13", "control signals": "1/9 (5.13)"}
{"CDR-L1": "EGDSLRYYYAN", "CDR-L2": "GKDNRPS", "CDR-L3": "SSRDSSWFHVF", "replicates, log10 nM": "2.47 2.57 2.63", "control signals": "4/9 (4.12)"}
{"CDR-L1": "EGGSLRYYYAN", "CDR-L2": "GKNNEPS", "CDR-L3": "SSRDSSWFQVF", "replicates, log10 nM": "ND ND ND", "control signals": "0/9"}
{"CDR-L1": "EGDSLYYYEAN", "CDR-L2": "GKNNRPS", "CDR-L3": "SSRDSSGTQVF", "replicates, log10 nM": "1.82 1.72 1.19", "control signals": "3/9 (4.47)"}
{"CDR-L1": "EGDSLRYYYKN", "CDR-L2": "GKANRPS", "CDR-L3": "SSRDSSGFQVF", "replicates, log10 nM": "4.08 3.81 ND", "control signals": "3/9 (4.66)"}
{"CDR-L1": "EGDSLRYYYAN", "CDR-L2": "GKNNRPS", "CDR-L3": "SHRDPSGCQVF", "replicates, log10 nM": "2.51 2.34 2.11", "control signals": "2/9 (2.79)"}
{"CDR-L1": "EGDSLRYGYAN", "CDR-L2": "GKNNRFS", "CDR-L3": "SSRDSSGFQWF", "replicates, log10 nM": "1.74 1.54 0.93", "control signals": "5/9 (3.80)"}
{"CDR-L1": "EGDSLRYYYAN", "CDR-L2": "GKNNRFS", "CDR-L3": "SSIDSSGFQGF", "replicates, log10 nM": "ND 3.12 3.39", "control signals": "0/9"}
{"CDR-L1": "EGYSLRYYYAN", "CDR-L2": "GKNNRTS", "CDR-L3": "SSRDSIGFQVF", "replicates, log10 nM": "4.35 3.29 ND", "control signals": "2/9 (3.98)"}
{"CDR-L1": "EGDSLCYYYAN", "CDR-L2": "GKNNRPS", "CDR-L3": "SVRDSDGFQVF", "replicates, log10 nM": "4.51 ND ND", "control signals": "2/9 (4.01)"}
{"CDR-L1": "EGTSLRYYYAN", "CDR-L2": "QKNNRPS", "CDR-L3": "SSRDESGFQVF", "replicates, log10 nM": "2.95 3.39 3.41", "control signals": "2/9 (4.84)"}
{"CDR-L1": "SGDSLRYYYAN", "CDR-L2": "GLENRPS", "CDR-L3": "SSRDSSGFQVF", "replicates, log10 nM": "3.43 3.68 2.68", "control signals": "0/9"}
{"CDR-L1": "EFDSLRYYYAM", "CDR-L2": "GKNNRPS", "CDR-L3": "ESRDSSGFQVF", "replicates, log10 nM": "ND ND ND", "control signals": "1/9 (2.46)"}
{"CDR-L1": "EGDSLRYYYAN", "CDR-L2": "GKNNRPM", "CDR-L3": "SQVDSSGFQVF", "replicates, log10 nM": "2.95 3.41 ND", "control signals": "4/9 (4.16)"}
{"CDR-L1": "EGDSLRYYLAN", "CDR-L2": "GKDNRFS", "CDR-L3": "SSRDSSGFQVF", "replicates, log10 nM": "ND ND ND", "control signals": "0/9"}
{"CDR-L1": "PGDSLRYHYAN", "CDR-L2": "GKNNFPS", "CDR-L3": "SSRDSSGFQVF", "replicates, log10 nM": "ND ND ND", "control signals": "3/9 (3.21)"}
{"CDR-L1": "EGDSLRYYAMN", "CDR-L2": "GKNNRWS", "CDR-L3": "SSRDSSGFQVF", "replicates, log10 nM": "4.72 ND ND", "control signals": "2/9 (3.42)"}
{"CDR-L1": "EGDSFRDYYAQ", "CDR-L2": "GKNNRPS", "CDR-L3": "SSRDSSGFQVF", "replicates, log10 nM": "2.64 2.95 2.25", "control signals": "4/9 (4.54)"}
{"CDR-L1": "PGDSLRYYHAN", "CDR-L2": "GKNNRPS", "CDR-L3": "STRDSSGFQVF", "replicates, log10 nM": "2.64 2.28 2.69", "control signals": "5/9 (4.09)"}
{"CDR-L1": "EGDSLRYYYAN", "CDR-L2": "GKNNIPS", "CDR-L3": "SSDWSSGFQVF", "replicates, log10 nM": "3.06 ND 4.13", "control signals": "0/9"}
{"CDR-L1": "EGDSLRPYHAN", "CDR-L2": "GKNNRCS", "CDR-L3": "SSRDSSGFQVF", "replicates, log10 nM": "3.68 3.55 ND", "control signals": "0/9"}
{"CDR-L1": "EGDSLRYYYAN", "CDR-L2": "GQNNRPS", "CDR-L3": "SSRDSSNFQVQ", "replicates, log10 nM": "3.26 ND ND", "control signals": "1/9 (4.40)"}
{"CDR-L1": "EGDSFRYYYAV", "CDR-L2": "GKNNRPS", "CDR-L3": "SSNDSSGFQVF", "replicates, log10 nM": "ND ND ND", "control signals": "2/9 (3.95)"}
{"CDR-L1": "EGDSLRYGYAN", "CDR-L2": "GKNFRPS", "CDR-L3": "SSRDSSGFQVF", "replicates, log10 nM": "1.20 1.17 0.66", "control signals": "5/9 (4.04)"}
{"CDR-L1": "EGDSLRAYYAN", "CDR-L2": "LKNNRPS", "CDR-L3": "SSRGSSGFQVF", "replicates, log10 nM": "ND ND 4.28", "control signals": "0/9"}
{"CDR-L1": "EGDSLYYYYSN", "CDR-L2": "GKNNRPS", "CDR-L3": "SSRDSSWFQVF", "replicates, log10 nM": "ND 4.26 ND", "control signals": "1/9 (2.80)"}
{"CDR-L1": "EGDSQRYYYAN", "CDR-L2": "GKMNRPS", "CDR-L3": "SSRWSSGFQVF", "replicates, log10 nM": "3.52 4.19 ND", "control signals": "5/9 (3.52)"}
{"CDR-L1": "EGDSLRYYYAN", "CDR-L2": "GMDNAPS", "CDR-L3": "SSRDSSGFQVF", "replicates, log10 nM": "5.57 4.51 ND", "control signals": "4/9 (4.09)"}

From the AlphaSeq antibody data of Engelhart et al. 2022 (doi:10.1038/s41597-022-01779-4), copy in the FLAb collection.